Test results as given in US11744889B2, “Skin microenvironment targeted delivery for promoting immune and other responses” (University of Pittsburgh—Of the Commonwealth System of …, priority 2016, dated 2023).

The chains behind the UniProt entries cited, without tags or fusion partners.
UniProt P30548, whole entry: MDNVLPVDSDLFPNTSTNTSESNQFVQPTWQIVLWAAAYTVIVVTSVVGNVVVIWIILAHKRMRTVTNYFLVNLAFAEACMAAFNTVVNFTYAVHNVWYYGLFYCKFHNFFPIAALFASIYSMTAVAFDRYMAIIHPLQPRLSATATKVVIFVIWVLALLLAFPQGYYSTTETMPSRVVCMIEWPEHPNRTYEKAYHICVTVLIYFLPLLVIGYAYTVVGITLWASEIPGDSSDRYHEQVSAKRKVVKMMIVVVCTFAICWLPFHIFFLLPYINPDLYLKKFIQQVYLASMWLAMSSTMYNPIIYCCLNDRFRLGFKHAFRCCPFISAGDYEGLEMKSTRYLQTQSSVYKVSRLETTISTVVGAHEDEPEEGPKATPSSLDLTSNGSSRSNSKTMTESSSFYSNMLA

Target: T1, NK1R (Mus musculus, UniProt P30548)
T1 construct: from tissue
Assay: Histology of skin and skin draining lymph nodes of B6-WT mice sensitized with DNCB with or without SarSP
Settings: in vivo
Excerpt: FIGS. 45A-45D illustrate inflammatory responses observed in cross sections of abdominal skin and skin draining lymph nodes of B6-WT mice sensitized or not (controls) with DNCB in the presence or not of the NK1R agonist SarSP. […] Mice treated with DNCB illustrate moderate skin inflammation composed of PMN cells (inset) distributed mainly in the papillary dermis (arrows).
FIG. 45B illustrates staining of skin sections with TB increased inflammatory infiltrate correlates with the degree of MC degranulation, insets.
(A & C: H and E, 200×; Insets, 1,000×; B & D: TB, 200×; Insets 1,000×; NT refers to non-treated mice.)
The effect of different treatments in B6-WT mice was compared with n=6/experimental group. […] The inflammatory infiltrate was composed of leukocytes including polimorphonuclear neutrophils (PMN) and eosinophils as shown in the inset of FIG. 45A.

## O=[N+]([O-])c1ccc(Cl)c([N+](=O)[O-])c1 [DNCB, 2,4-Dinitrochlorobenzene]
  number of MC in draining lymph nodes: induced an increased number of MC
